Literature values in PMC12925725, “A potent nonapeptide inhibitor for the CXCL12/HMGB1 heterocomplex: A computational and experimental approach” (Computational and Structural Biotechnology Journal, 2025).

System: HMGB1-mediated activation of TLR4
Conditions: cited from earlier work

In the case of CC[C@H](C)[C@H](NC(=O)[C@H](Cc1c[nH]c2ccccc12)NC(=O)[C@H](CCCNC(=N)N)NC(=O)[C@H](CCC(=O)O)NC(=O)[C@H](Cc1ccc(O)cc1)NC(=O)[C@H](Cc1c[nH]cn1)NC(=O)[C@H](Cc1ccc(O)cc1)NC(=O)CN)C(=O)N[C@@H](Cc1c[nH]cn1)C(=O)O, the “effect on HMGB1's ability to trigger TLR4” value is listed as “without impacting HMGB1's ability to trigger TLR4”.
